Our source for the IC50 and EC50 values is patent publication US20260200946A1, “KRAS(G12V) INHIBITORS” (Ranok Therapeutics (Hangzhou) Co. Ltd., priority 2022, published 2026).

By UniProt entry, the sequences of proteins in these tests, tags left out. Residues count along the entry.
UniProt P01116, 1-188 isoform 2 G12V: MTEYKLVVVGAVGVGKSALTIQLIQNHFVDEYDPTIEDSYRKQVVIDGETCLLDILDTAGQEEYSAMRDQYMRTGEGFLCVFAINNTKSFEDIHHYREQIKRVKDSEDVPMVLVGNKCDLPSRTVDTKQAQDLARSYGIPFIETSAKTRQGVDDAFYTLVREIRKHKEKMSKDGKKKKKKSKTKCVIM

Structures are written as SMILES.

One experiment has as its target KRAS(G12V)/SOS1 (Homo sapiens, UniProt P01116, G12V). Description: KRAS(G12V)/SOS1 homogeneous time-resolved fluorescence (HTRF) assay. Particulars: read-out: HTRF of KRASG12V-SOS1; absence of GTP; 4° C., 3 hours; tested form: formate. The format is binding. The procedure: Binding of test compounds to KRAS(G12V) target protein, which in turn blocks KRAS(G12V) interaction with the SOS1 protein, was measured in the absences of GTP by homogeneous time-resolved fluorescence using the KRAS-G12V/SOS1 Binding Assay Kit (Cisbio, 63ADK000CB18PEH), following the manufacturer's instructions, except as noted. 3-fold serial dilutions of each test compound were prepared ranging from 20 µM to 1.02 nM. The test compound was mixed and incubated with reaction components, incubated in a sealed plate at 4° C. for 3 hours and fluorescence was measured using a PerkinElmer Envision plate reader. The KRAS(G12V)-SOS1 IC50 values (the concentration of 50% of the maximal inhibition) were calculated using GraphPad Prism 8.0 software.
On the technique in general: In TR-FRET formats the signal depends on donor and acceptor labels being close together.

The subject of a further experiment is SW620 cells. Description: Cancer cell line proliferation (CellTiter-Glo), SW620. The format is cell-based. Particulars: read-out: SW620, SW620 colorectal adenocarcinoma, homozygous G12V, 72 hr, tested form: formate.
A further experiment relates to NCIH727 cells. Briefly: Cancer cell line proliferation (CellTiter-Glo), NCI-H727. Particulars: read-out: NCI-H727, NCIH727 lung carcinoid, heterozygous G12V, 72 hr, tested form: formate. On the technique in general: ATP-based viability assays read luminescence as a measure of living cells.

`C#Cc1c(F)ccc2cc(O)cc(-c3nc(OC)c4c(N5CC6CCC(C5)N6C(=O)CCC#N)nc(OCC5(CN6CCC(F)CC6)CC5)nc4c3F)c12`: the IC50 at KRAS(G12V)/SOS1 is less than 100 nM. In addition, the EC50 with SW620 cells and in the experiment with NCIH727 cells was 100 to 1000 nM each time.
Turning to `C#Cc1c(F)ccc2cc(O)cc(-c3nc(OC)c4c(N5CC6CCC(C5)N6C(=O)CC#N)nc(OCC5(CN6CCC(F)CC6)CC5)nc4c3F)c12`, on KRAS(G12V)/SOS1, the IC50 is less than 100 nM. The EC50 in the experiment on SW620 cells and in the experiment with NCIH727 cells was 100 to 1000 nM in each case.
`C#Cc1c(F)ccc2cc(O)cc(-c3nc(OC)c4c(N5CC6CCC(C5)N6C(=O)CC(C)(C)C)nc(OCC5(CN6CCC(F)CC6)CC5)nc4c3F)c12`: the IC50 on KRAS(G12V)/SOS1 is less than 100 nM. Moreover, the EC50 in the experiment on SW620 cells is 100 to 1000 nM; with NCIH727 cells, more than 1000 nM.
